Results on 1 molecule are retold here after patent US11717499B2 (priority 2011, dated 2023).

The subject of the experiment is LPS-triggered PTB. To be noted: for Percent mice delivered: 50 mg/kg LPS, control 89%; for Average time of delivery: among mice that delivered, control 14.3 hours; for Percent pups lost to spontaneous preterm delivery: control 43.5%. The protocol: Mice were then randomly assigned to the control group or one of five treatment groups. […] Additionally, a sixth group of four animals received i.p. injections of 0.5 ml PBS in lieu of LPS at the same time points and served as sham (Table 1).
After the injection at t=10 hours, mice were continually monitored; time of delivery of the first pup and number of pups dropped over time were recorded. […] All mice were sacrificed by carbon dioxide asphyxiation. The mice were autopsied at the end of experiments to confirm pregnancy and to determine the number of pups retained in utero. Placenta and uteri were harvested and stored.

Read-outs that look alike come from different tables or passages of the source.

On to `CC(=O)N(C)C` [DMA, N,N-dimethylacetamide], for which the “Number of mice that delivered” value (DMA 0.2 mg/kg i.p. at t=-0.5 and 10 h, 50 mg/kg LPS on E15.5, 7 mice, to t=24 h) came out at 5. Also, the Percent mice delivered runs as follows: (DMA 0.2 mg/kg) 71.43%; (DMA 0.39 mg/kg) 37.5%; (DMA 0.78 mg/kg) 20%. Also, the “Average time of delivery” value by setting is: (DMA 0.2 mg/kg) 16.1 h; (DMA 0.39 mg/kg) 20.1 h; (DMA 0.78 mg/kg) 19.4 h. The “Percent pups lost to spontaneous preterm delivery” value (from here on “Percent pups lost”) (DMA 0.2 mg/kg) came to 25.5%, the “Percent pups lost” value (DMA 0.39 mg/kg) amounted to 10.9% and the “Percent pups lost” value (DMA 0.78 mg/kg) is on record as 5.5%.
